## Apparent affinities of Ab-91 variants for a coronavirus HR2 peptide

Reference: Engelhart et al. 2022, doi:10.1038/s41597-022-01779-4. File: FLAb, binding data.

All variants were tested on one target, the spike HR2 peptide PDVDLGDISGINAS (SARS-CoV-2).

Parent scFv Ab-91: VL joined to VH by a 15-residue (Gly4Ser)3 linker. Changes lie in the heavy chain CDRs alone.
VL: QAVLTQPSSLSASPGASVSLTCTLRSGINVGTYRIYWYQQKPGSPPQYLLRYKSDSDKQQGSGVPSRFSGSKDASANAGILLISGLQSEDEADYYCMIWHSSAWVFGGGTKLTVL
VH: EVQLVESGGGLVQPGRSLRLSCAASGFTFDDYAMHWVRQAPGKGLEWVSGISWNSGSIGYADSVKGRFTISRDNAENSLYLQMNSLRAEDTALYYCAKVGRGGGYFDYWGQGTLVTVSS

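In library AAYL51, one, two or three CDR residues were substituted; doubles and triples were drawn at random. AlphaSeq pools MATa yeast showing the antibodies with MATalpha yeast showing the peptide. Pairs that bind mate more often; barcode pairs of the diploids are counted by sequencing. Scores were corrected for input abundance and mapped to Kd with protein pairs of known affinity run in the same pool. There are three technical replicates.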

Variants are written as CDR1, CDR2 and CDR3 of the heavy chain (limits as in the source). Parent: GFTFDDYAMH, GISWNSGSIGYADSVK, VGRGGGYFDY. All variants listed here change D62 of the VH, counted from its first residue. Values are apparent Kd, the geometric mean of the replicates that gave a signal; lower means stronger binding. An entry "nd" has no value in the source: the pair was not observed among the diploids in any replicate. This suggests poor binding but is not conclusive. As a blank, each scFv also met three strains without target: over library AAYL51, 21% of these pairings were detected, typically at 34 µM and seldom below 1.8 µM. In this assay the parent's reference entry averaged 72 nM; its copy inside this library read 7.5 nM.

CDR-H1,CDR-H2,CDR-H3,apparent Kd,seen in
GFTFDDYAMH,GMSWNSGSIGYAESVK,VGRGGGYFDN,190 nM,3 of 3
GFTFSDYAMH,GICWNSGSIGYARSVK,VGRGGGYFDY,240 µM,3 of 3
GFTFDDYAMH,GISWNMGSIGYAWSVK,VGRGGGYFQY,11 µM,1 of 3
GFTFDDYAMH,GISWNSGSIGYAHSVK,VGRGGGYFDY,480 µM,2 of 3
GFTFDDYAMH,GISWNSGVILYAHSVK,VGRGGGYFDY,19 µM,1 of 3
GFTFDDYAMH,GISWNSGSIGYAAVVK,VGRGGGYFDY,1.4 µM,3 of 3
GFTHDDYAMH,GISWNSGSIGYAYSVY,VGRGGGYFDY,nd,0 of 3
GFTWDDYAMH,GISWNSGSIGYAPSVK,VGRGGPYFDY,nd,0 of 3
EFTFDDYAMH,GISWNSGSIGYATSVM,VGRGGGYFDY,47 µM,1 of 3
QFTFDDYAMH,GISWNSGSIGYAGSVK,VGRGGGDFDY,nd,0 of 3
GFTFDDKAMH,GISWNSGSIGYAESNK,VGRGGGYFDY,nd,0 of 3
GFTFDDYAMH,GRSWNNGSIGYATSVK,VGRGGGYFDY,nd,0 of 3
GFTFDDYAMH,GISWNSGSIGYRLSVK,VPRGGGYFDY,nd,0 of 3
GFTFDDYAMN,GISWNSGSIGYARSVK,VGRGGGYFDY,16 µM,1 of 3
GFTWDDYAMH,GISWNSGSIGYAVSVK,VGRGGGMFDY,950 µM,1 of 3
GFTFDDYAMR,GISWNSGSIGGAASVK,VGRGGGYFDY,nd,0 of 3
GFTFDDYAMH,GISWNSVSILYAMSVK,VGRGGGYFDY,nd,0 of 3
GFTFDDYAMH,NISSNSGSIGYAMSVK,VGRGGGYFDY,57 µM,1 of 3
GFTFQDYAMH,GISWNSGSIGYAHSVK,VGRGGGYFDR,23 µM,3 of 3
GFTFDDYNMQ,GISWNSGSIGYAFSVK,VGRGGGYFDY,150 µM,1 of 3
GFTFDDFAMH,GISWDSGSIGYAKSVK,VGRGGGYFDY,5.4 µM,1 of 3
GITFDDYAMH,GISWNSGSIGYAESVK,VWRGGGYFDY,1.3 mM,2 of 3
GFTFDDYAMH,GISWNSGSIGYAQSWK,VGRGGGYFDG,8.1 µM,1 of 3
GFTFDDYAMH,GDSWNSGSIGYCSSVK,VGRGGGYFDY,210 µM,1 of 3
GFTFDDYAMH,GISWNSGSIGNARSVK,VERGGGYFDY,nd,0 of 3
GFTFDDMAMH,GISWNSGSIGYAHSVK,VGCGGGYFDY,60 µM,1 of 3
GFTFDDGAMH,GISWNSGSIGYAMSVK,FGRGGGYFDY,nd,0 of 3
GFTFDDYAMH,GISWNSGSIGYATSVL,VGRGGGYFDY,450 nM,3 of 3
GFTFDDYAMH,GIGWNMGSIGYAVSVK,VGRGGGYFDY,100 µM,1 of 3
GITRDDYAMH,GISWNSGSIGYAYSVK,VGRGGGYFDY,nd,0 of 3
GFTFDDYAMH,GISWNAGSIGYARSVP,VGRGGGYFDY,340 µM,3 of 3
GFTFDDYLMH,GIFWNSGSIGYAKSVK,VGRGGGYFDY,nd,0 of 3
GFTFDDYAMH,NISWNSGSIGYAESVK,VERGGGYFDY,850 µM,1 of 3
GLTFDDYAMH,GISWNSGSIGYARSVK,VGRGGGPFDY,61 µM,1 of 3
GFTFDDYAMH,GISFNSGSIGYASSVK,VGRGGGYYDY,610 nM,1 of 3
GFTFDDYGMH,GISWNSGSIGYAWSVK,VGRWGGYFDY,nd,0 of 3
GFTFDDYAMH,SISWNSVSIGYARSVK,VGRGGGYFDY,16 µM,2 of 3
GHTFDDYAMH,GISWNFGSIGYAPSVK,VGRGGGYFDY,nd,0 of 3
GFTFDDYAFH,GISWNSGSIGYAVSVK,VGRGGGFFDY,100 µM,3 of 3
GFTFDDYAMH,GISWNSGSIGYAPSKK,VGRGGGYFDY,nd,0 of 3
GFTFDDYAMW,GISWNSGSIGTATSVK,VGRGGGYFDY,nd,0 of 3
GFTFDDYAMH,GISWNSGSLGYAPSVK,VGRGGEYFDY,4.7 µM,2 of 3
GFTFDDYAMQ,GIEWNSGSIGYAESVK,VGRGGGYFDY,57 µM,2 of 3
GFTFDDYAMH,GISWNSGAIGYAWSVN,VGRGGGYFDY,5.3 µM,3 of 3
GFTFDQYAMH,GISWNSGSIGYAESVK,VGRGGGYFDE,3.3 nM,3 of 3
GFTFDDYAMH,GISWNSGSIGRAESVK,CGRGGGYFDY,110 µM,1 of 3
GFTFDDYANH,GISWNSGSIGYASSVK,VGRGGGYFDY,3.2 µM,1 of 3
GFTFDDYAMH,GISWNSTSIGTANSVK,VGRGGGYFDY,9.3 µM,2 of 3
KFTFDDYAMH,GISWNSGSIGYHPSVK,VGRGGGYFDY,nd,0 of 3
GFTFDDYADH,GISWNSGSIGYASSQK,VGRGGGYFDY,2.7 mM,1 of 3
GFTFDDYAMH,GIKWNSGSIGYAYSVK,VGRMGGYFDY,nd,0 of 3
GYTFDDYAMH,GISWNSGSIGYASSVC,VGRGGGYFDY,nd,0 of 3
GFTFDDYAMH,GISWNSGSIGYACSVK,VGRGGGYLDY,16 µM,3 of 3
GFTFDTYAMH,GISWNSGRIGYAMSVK,VGRGGGYFDY,9.4 µM,2 of 3
GFTFDDYAMH,GISWNSLSIGYAVSRK,VGRGGGYFDY,nd,0 of 3
GFTFDDYAMH,GISWKSGSIGAAESVK,VGRGGGYFDY,19 µM,1 of 3
GFTFDDYAMH,GLSWNSGSIGEAASVK,VGRGGGYFDY,610 µM,1 of 3
GFTFDDYAMH,GISWNSPSIGYAYSVK,VGRGGGYFDY,nd,0 of 3
GFTFDDYADH,GISWNSGSIGYAASVH,VGRGGGYFDY,160 µM,1 of 3
GFTFDDYAMH,GISWNSGSIGYAYSLK,VGQGGGYFDY,16 µM,2 of 3
GFTFDDYALH,GISWNSGSIGYAQSVK,VGRGGGYFDV,4.5 µM,2 of 3
GFTFNDYAMH,GISWNSGSIGYAPSVK,VGRGGGLFDY,800 µM,3 of 3
GFTFDDYAMH,GINWNSGSIIYACSVK,VGRGGGYFDY,nd,0 of 3
GFTFDDYAMH,GISWNSGSIGYAYSVK,VGRGGGYFDY,290 nM,3 of 3
GFTFDDYAMH,GISWPSGSIGYAHSMK,VGRGGGYFDY,nd,0 of 3
GKWFDDYAMH,GISWNSGSIGYAISVK,VGRGGGYFDY,32 µM,1 of 3
GFTFDDYAMH,GISWNSGSIGYAYSVK,VGAGGGYFDY,54 nM,3 of 3
GFTFDDYAMH,GISWNSGSIGYATVVK,VGRGGGYFDY,8.2 µM,3 of 3
GFTFDDYAMH,GISWNSHSIGYAPSVK,VGRGGGVFDY,740 nM,3 of 3
GFTFHDYAMH,GISWNSGSIGYAQSVK,VPRGGGYFDY,nd,0 of 3
DFTFDDYAMH,GISWNSGSIGYAISVK,YGRGGGYFDY,nd,0 of 3
GFTFDDYAMH,GISWNSGSIGYAPDVK,VGRGGGYFDG,40 nM,3 of 3
GFTFDMYAMH,GISWNSGSIGYATSVK,VGRGQGYFDY,nd,0 of 3
GFTFDDYAMH,GISWNSGSDGYAMFVK,VGRGGGYFDY,nd,0 of 3
GFTFMDYAMH,GISWNSGSIDYAISVK,VGRGGGYFDY,99 µM,3 of 3
GFTFDTYAMH,GISWNSGSIGYAASVK,VGRGGGYFDK,nd,0 of 3
GFTFDDYAMH,GISWNEGSIGYASSVK,VYRGGGYFDY,4.3 µM,2 of 3
GFTFDDYAMH,GISANSGSIGYATSVK,VGRGGWYFDY,6.1 nM,3 of 3

The first 5 variants above that were never detected:

CDR-H1,CDR-H2,CDR-H3,apparent Kd,seen in
GFTHDDYAMH,GISWNSGSIGYAYSVY,VGRGGGYFDY,nd,0 of 3
GFTWDDYAMH,GISWNSGSIGYAPSVK,VGRGGPYFDY,nd,0 of 3
QFTFDDYAMH,GISWNSGSIGYAGSVK,VGRGGGDFDY,nd,0 of 3
GFTFDDKAMH,GISWNSGSIGYAESNK,VGRGGGYFDY,nd,0 of 3
GFTFDDYAMH,GRSWNNGSIGYATSVK,VGRGGGYFDY,nd,0 of 3